Experimental data published in US20150118700.

B1: fructosyl amino acid oxidase derived from Cryptococcus neoformans (CnFX) (protein)
chain: MPPSRASTKVIVIGGGGTLGSSTALHLLRAGYTPSNITVLDTYLIPSAQSAGNDLNKIMGIRIRNPVDKQLSLEARDMWRNDEVFKPYFHNTGRLDCAHTPESIASLRKSYEAILKAGSGLEKTHHWLSTEDEILARAPLLDRKQIKGWKAIYSEDGGWLAAAKAINSIGQVLKEKGVTFGFGSAGSFKKPLFDEDGTKAIGIETVDGTQYFADKVVLAAGAWSPTLVDLEGQCCSKAWVYAHMQLTPEEAAEYKECPVVYNSELGFFFEPNEKGVIKVCDEFPGFTRFKQHQPYGASSTKHISFPRSHAKHPTDTIPDESDASIRRAISAFLPRFKEKELFNRALCWCTDTADANLLICEHPKWKNFILATGDSGHSFKILPNIGKHVVELIEGTLAEDLAESWRWRPGSGDPLISRRAAPARDLADLPGWNHDEPSDDDMD
B2: CnFX-62D/106K/110L/113K (protein)
chain: MPPSRASTKVIVIGGGGTLGSSTALHLLRAGYTPSNITVLDTYLIPSAQSAGNDLNKIMGIDIRNPVDKQLSLEARDMWRNDEVFKPYFHNTGRLDCAHTPESIAKLRKLYEKILKAGSGLEKTHHWLSTEDEILARAPLLDRKQIKGWKAIYSEDGGWLAAAKAINSIGQVLKEKGVTFGFGSAGSFKKPLFDEDGTKAIGIETVDGTQYFADKVVLAAGAWSPTLVDLEGQCCSKAWVYAHMQLTPEEAAEYKECPVVYNSELGFFFEPNEKGVIKVCDEFPGFTRFKQHQPYGASSTKHISFPRSHAKHPTDTIPDESDASIRRAISAFLPRFKEKELFNRALCWCTDTADANLLICEHPKWKNFILATGDSGHSFKILPNIGKHVVELIEGTLAEDLAESWRWRPGSGDPLISRRAAPARDLADLPGWNHDEPSDDDMD
B3: fructosyl amino acid oxidase derived from Aspergillus oryzae RIB40 (FAOAo2) (protein)
chain: MTVTKSSSILIIGAGTWGASTALHLGRRGYTNVTVLDPYTVPSAISAGNDVNKIISSGQYSNKKDEIEVNEILAEEAFKGWTTDPLFKPYYHDTGVVMSACSSAGLDRLGIRVRPEEEPDVSEVTKPEHFRQLAPAVLKGNFPGWRGYHIRSNAGWAHARNALVAAIREAEKLGVKFVTGTQGRVITLIFENNDVKGAVTADGKIWRAEQTVLCAGANAAQFLDFKDQLRPTAWTLAHIRLKPEERALYKNLPVIFNIEKGFFFEPDEERGEIKICDEHPGYTNMVKSADGHLTSLPFEKTQIPKESEARVRALLSETMPQLADRPFSFARVCWCADTANREFIIDRHPEHPSLVLGCGASGRGFKYLPSIGNLIVDAIEDKVPEKVHKLTRWSPDIAVDRKWRDTLGRFGGPNRVMDFHDVKEWTNVQNKDTAKL
B4: fructosyl peptide oxidase derived from Phaeosphaeria nodorum (PnFX) (protein)
chain: MAPSRANTSVIVVGGGGTIGSSTALHLVRSGYTPSNVTVLDAYPIPSSQSAGNDLNKIMGVSLRNPVDLQLALEARQMWNEDELFKKFFHNTGRLDCAHGEKDIADLKSGYQALVDAGLDATNEWLDSEDEILKRMPLLSRDQIKGWKAIFSKDGGWLAAAKAINAVGEYLRDQGVRFGFYGAGSFKAPLLAEGVCIGVETVDGTRYYADKVVLAAGAWSPTLVELHEQCVSKAWVYGHIQLTPEEAARYKNSPVVYNGDVGFFFEPNEHGVIKVCDEFPGFTRFKMHQPFGAKAPKRISVPRSHAKHPTDTIPDASDVSIRRAIATFMPQFKNKKMFNQAMCWCTDTADAALLICEHPEWKNFVLATGDSGHSFKLLPNIGKHVVELLEGTLADDLAHAWRWRPGSGDALKSRRSAPAKDLADMPGWNHDKPRANL

Molecular target: T1, α-fructosyl hexapeptide (α-fructosyl-valyl-histidyl-leucyl-threonyl-propyl-glutamic acid)
T1 chain: VHLTPE

First: B1
Second: B2
The Specific activity (U/mg), 1 mM αF6P of the first is lower: 0 U/mg for the first, 0.342 U/mg for the second.

Compared with B3, B4 is higher in Specific activity (U/mg), 1 mM αF6P: 0.0022 U/mg for the first, 0.0091 U/mg for the second.
